{"sequences": {"note": "Protein sequences, listed by entry. Tags and fused reporters are not part of them.", "UniProt O94782, whole entry, looked up": "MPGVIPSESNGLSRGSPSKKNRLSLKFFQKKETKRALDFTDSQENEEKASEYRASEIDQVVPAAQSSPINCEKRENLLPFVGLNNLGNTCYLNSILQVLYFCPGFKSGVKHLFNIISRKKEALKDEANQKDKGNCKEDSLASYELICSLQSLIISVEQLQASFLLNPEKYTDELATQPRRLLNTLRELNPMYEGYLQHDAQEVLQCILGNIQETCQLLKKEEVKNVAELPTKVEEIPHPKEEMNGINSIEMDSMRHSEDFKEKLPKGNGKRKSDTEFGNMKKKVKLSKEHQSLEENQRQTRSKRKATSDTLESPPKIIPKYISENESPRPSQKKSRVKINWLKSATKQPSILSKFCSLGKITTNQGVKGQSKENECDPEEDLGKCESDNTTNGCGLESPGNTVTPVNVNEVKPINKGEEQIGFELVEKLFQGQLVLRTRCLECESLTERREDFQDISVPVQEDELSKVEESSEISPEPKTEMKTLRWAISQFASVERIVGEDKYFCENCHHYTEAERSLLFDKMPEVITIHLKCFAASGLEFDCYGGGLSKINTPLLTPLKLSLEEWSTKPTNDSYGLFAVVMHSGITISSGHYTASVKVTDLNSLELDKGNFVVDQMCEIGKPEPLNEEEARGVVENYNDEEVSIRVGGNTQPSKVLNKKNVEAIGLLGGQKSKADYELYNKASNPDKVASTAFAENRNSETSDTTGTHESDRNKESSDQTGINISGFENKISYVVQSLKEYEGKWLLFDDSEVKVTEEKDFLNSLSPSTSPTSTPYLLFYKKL"}, "source": "PubChem BioAssay AID743255", "about": "(National Center for Advancing Translational Sciences (NCATS), 2014)", "note": "The entries are a selection whose mix differs from that of the whole data set. Results filed as inconclusive are left out. Activity calls are given as the source filed them. Calls come from the whole dose curve; as a rule, active = well fitted inhibition curve with a large enough effect; inconclusive = small, poorly fitted or top-dose-only effect; inactive = no such curve, though single readings can be large or run the other way. % is set by controls: 0 for no effect and ±100 for the full control effect.", "data": [{"target": "Ubiquitin carboxyl-terminal hydrolase 1 (Homo sapiens) (UniProt O94782)", "assay": "Inhibitors of USP1/UAF1: Primary Screen; note: nearly all actives have a fitted effect of over 60% in size", "conditions": "recombinant USP1/UAF1, Ub-Rhodamine cleavage fluorescence; at 57.1 µM (top of the series)", "description": "Deubiquitinating enzymes (DUBs) are a class of enzymes that can cleave isopeptide bond formed between the C-terminal carboxylate of ubiquitin and a lysine side-chain amino group on the target protein. Among them, ubiquitin specific proteases (USPs) constitute the largest DUB family. Human USPs are emerging as promising targets for pharmacological intervention because of their connection to a number of human diseases, including prostate, colon and breast cancer (1, 2), pediatric acute lymphoblastic leukemia (3), and familial cylindromatosis (4). The advantage of inhibiting USPs lies in the potential specificity of therapeutic intervention that can lead to better efficacy and reduce nonspecific side effects. In a collaboration between the University of Delaware and the NIH Chemical Genomics Center, a high-throughput screen assay was developed to screen for USP1/UAF1 inhibitors. This miniaturized assay has a fluorescent read-out and is used to screen the NIH Molecular Libraries Small Molecule Repository (MLSMR) in order to identify a small molecule that inhibits USP1. NIH Chemical Genomics Center [NCGC] NIH Molecular Libraries Probe Centers Network [MLPCN] MLPCN Grant: DA030552 Assay Submitter (PI): Zhihao Zhuang, University of Delaware 1. Priolo, C., et al. (2006) The isopeptidase USP2a protects human prostate cancer from apoptosis. Cancer Res 66, 8625-8632 2. Popov, N., et al. (2007) The ubiquitin-specific protease USP28 is required for MYC stability. Nat Cell Biol 9, 765-774 3. De Pitta, C., et al. (2005) A leukemia-enriched cDNA microarray platform identifies new transcripts with relevance to the biology of pediatric acute lymphoblastic leukemia. Haematologica 90, 890-898 4. Kovalenko, A., et al. (2003) The tumour suppressor CYLD negatively regulates NF-kappaB signalling by deubiquitination. Nature 424, 801-805\n3 microliters of reagents (buffer in columns 3 and 4 as negative control and 1nM USP1/UAF1 complex in columns 1, 2, and 5-48) are dispensed into Greiner black solid bottom 1536-well assay plates. Compounds are then transferred via Kalypsys pin tool equipped with 1536-pin array (10nl slotted pins, V&P Scientific, San Diego, CA). Following an incubation step of 15 min at room temperature, 1ul of Ub-Rho substrate (150nM final concentration) is added to initiate the reaction. The plates are immediately centrifuged at 1000 rpm for 15 seconds, and subsequently transferred to a ViewLux high-throughput CCD imager (PerkinElmer) wherein kinetic measurements of fluorescence are acquired using 480 nm excitation/540 nm emission filter set (6 reads every 60 seconds, see Table 1). All reagents are diluted in an assay buffer consisting of 50mM HEPES (pH 7.8), 0.5mM EDTA, 0.1 mg/ml BSA, 1mM TCEP, and 0.01% Tween-20.", "values": [{"smiles": "Cc1ccc(C(=O)NCC2(N3CCCCC3)CCCCC2)o1", "activity change, negative = inhibition": "inactive: -4.52%"}, {"smiles": "Fc1ccccc1NC1CCN(Cc2ccccc2)CC1", "activity change, negative = inhibition": "inactive: 6.53%"}, {"smiles": "Cc1ccc(NC2(C#N)CCN(Cc3ccccc3)CC2)cc1", "activity change, negative = inhibition": "inactive: 1.51%"}, {"smiles": "CC(=O)N(c1ccccc1)C1CCNCC1", "activity change, negative = inhibition": "inactive: -6.31%"}, {"smiles": "CN(C)C1(CNC(=O)c2ccc(C(C)(C)C)cc2)CCCCC1", "activity change, negative = inhibition": "inactive: -13.2%"}, {"smiles": "COc1cc(OC)cc(C(=O)NCC2(N3CCCCC3)CCCCC2)c1", "activity change, negative = inhibition": "inactive: -2.62%"}, {"smiles": "Cc1ccccc1C(=O)NCC1(N(C)C)CCCCC1", "activity change, negative = inhibition": "inactive: -23.5%"}, {"smiles": "CC(C)(C)c1ccc(C(=O)NCC2(N3CCOCC3)CCCCC2)cc1", "activity change, negative = inhibition": "inactive: -19%"}, {"smiles": "O=C(NCC1(N2CCCCC2)CCCCC1)c1ccco1", "activity change, negative = inhibition": "inactive: -15.9%"}, {"smiles": "Cn1c(=O)[nH]cc(N(CCCl)CCCl)c1=O", "activity change, negative = inhibition": "inactive: -13.5%"}, {"smiles": "CN(C)c1ccc(C(=O)NCC2(N3CCCCC3)CCCCC2)cc1", "activity change, negative = inhibition": "inactive: -0.0459%"}, {"smiles": "Cc1ccccc1NC1(C#N)CCN(Cc2ccccc2)CC1", "activity change, negative = inhibition": "inactive: -11.5%"}, {"smiles": "CCN1CCC(Nc2cccc(F)c2)CC1", "activity change, negative = inhibition": "inactive: -16%"}, {"smiles": "CC(C)(C)OC(=O)N1CCC(Nc2ccccc2)CC1", "activity change, negative = inhibition": "inactive: -12.5%"}, {"smiles": "O=C(O)C1(Nc2ccccc2)CCN(Cc2ccccc2)CC1", "activity change, negative = inhibition": "inactive: -21.5%"}, {"smiles": "CCCOc1ccc(C(=O)NCC2(N(C)C)CCCCC2)cc1", "activity change, negative = inhibition": "inactive: -24.6%"}, {"smiles": "CCOc1ncccc1C(=O)NCC1(N2CCOCC2)CCCCC1", "activity change, negative = inhibition": "inactive: -12%"}, {"smiles": "CN1CCC(Nc2ccc(F)c(Cl)c2)CC1", "activity change, negative = inhibition": "inactive: -26.8%"}, {"smiles": "CN1CCC(Nc2ccc(Cl)cc2)CC1", "activity change, negative = inhibition": "inactive: -16.2%"}, {"smiles": "COc1cccc(C(=O)N(c2cc(C)cc(C)c2)C2CCN(C(=O)OC(C)(C)C)CC2)c1", "activity change, negative = inhibition": "inactive: -9.66%"}, {"smiles": "COc1cc(C(=O)NCC2(N3CCOCC3)CCCCC2)cc(OC)c1OC", "activity change, negative = inhibition": "inactive: -20.7%"}, {"smiles": "COc1cc(OC)cc(C(=O)NCC2(N3CCOCC3)CCCCC2)c1", "activity change, negative = inhibition": "inactive: -8%"}, {"smiles": "CCC(CO)(C(=O)OC1CN2CCC1CC2)c1ccccc1", "note": "(stereo not drawn)", "activity change, negative = inhibition": "inactive: -0.933%"}, {"smiles": "COc1ccc(C(=O)NCC2(N3CCOCC3)CCCCC2)cc1OC", "activity change, negative = inhibition": "inactive: 10.3%"}, {"smiles": "COc1cc(C(=O)NCC2(N3CCOCC3)CCCCC2)cc(OC)c1C", "activity change, negative = inhibition": "inactive: -14.6%"}, {"smiles": "O=C(NCC1(N2CCOCC2)CCCCC1)c1cc(Br)ccc1Cl", "activity change, negative = inhibition": "inactive: -21.1%"}, {"smiles": "O=C(OC1CN2CCC1CC2)C1c2ccccc2C=Cc2ccccc21", "note": "(stereo not drawn)", "activity change, negative = inhibition": "inactive: -14.4%"}, {"smiles": "CCc1cc(C(=O)NCC2(N3CCCCC3)CCCCC2)sc1C", "activity change, negative = inhibition": "inactive: -15.7%"}, {"smiles": "O=C(O)c1cccc(Nc2c([N+](=O)[O-])cc([N+](=O)[O-])cc2[N+](=O)[O-])c1", "activity change, negative = inhibition": "inactive: -11%"}, {"smiles": "CCOC(=O)N1CCC(Nc2ccc(C)cc2)CC1", "activity change, negative = inhibition": "inactive: -15.5%"}, {"smiles": "N/C(=N\\O)c1c(N)no[n+]1[O-]", "activity change, negative = inhibition": "inactive: -15.8%"}, {"smiles": "CCOC(=O)C(CC)C1=NC(C)(C)Cc2ccccc21.O=[N+]([O-])c1cc([N+](=O)[O-])c(O)c([N+](=O)[O-])c1", "note": "(stereo not drawn)", "activity change, negative = inhibition": "inactive: -22%"}, {"smiles": "O=C(NCC1(N2CCOCC2)CCCCC1)c1ccccc1[N+](=O)[O-]", "activity change, negative = inhibition": "inactive: -25.3%"}, {"smiles": "N#Cc1ccc(C(=O)NCC2(N3CCCCC3)CCCCC2)cc1", "activity change, negative = inhibition": "inactive: -15.6%"}, {"smiles": "CC(C)(C)OC(=O)N1CCC(N(C(=O)c2ccccc2)c2ccc(Cl)cc2)CC1", "activity change, negative = inhibition": "inactive: -19.3%"}, {"smiles": "O=C(NCC1(N2CCOCC2)CCCCC1)c1ccc([N+](=O)[O-])cc1", "activity change, negative = inhibition": "inactive: -31.1%"}, {"smiles": "CN(C)C1(CNC(=O)c2cccc(C#N)c2)CCCCC1", "activity change, negative = inhibition": "inactive: 4.57%"}, {"smiles": "c1ccc(CN2CCC(Nc3ccccc3)CC2)cc1", "activity change, negative = inhibition": "inactive: -20%"}, {"smiles": "CCCN1CCC(Nc2cc(OC)cc(OC)c2)CC1", "activity change, negative = inhibition": "inactive: -17.6%"}, {"smiles": "Cc1cc(N(CCCl)CCCl)ccc1C=O", "activity change, negative = inhibition": "inactive: -17.4%"}, {"smiles": "O=C(NCC1(N2CCOCC2)CCCCC1)c1ccccc1", "activity change, negative = inhibition": "inactive: -11.7%"}, {"smiles": "CCN1CCC(Nc2ccc(Cl)cc2)CC1", "activity change, negative = inhibition": "inactive: -1.71%"}, {"smiles": "N#CC1(Nc2ccccc2)CCN(CCc2ccccc2)CC1", "activity change, negative = inhibition": "inactive: 3.46%"}, {"smiles": "O=C(NCC1(N2CCCCC2)CCCCC1)c1cccc([N+](=O)[O-])c1", "activity change, negative = inhibition": "inactive: 1.24%"}, {"smiles": "CCOc1ccc(C(=O)NCC2(N3CCOCC3)CCCCC2)cc1", "activity change, negative = inhibition": "inactive: -19.5%"}, {"smiles": "CSc1ccc(C(=O)NCC2(N3CCOCC3)CCCCC2)cc1", "activity change, negative = inhibition": "inactive: 0.646%"}, {"smiles": "O=C(NCC1(N2CCCCC2)CCCCC1)c1ccc(OC(F)F)cc1", "activity change, negative = inhibition": "inactive: -15.1%"}, {"smiles": "O=C(NCC1(N2CCOCC2)CCCCC1)c1cc(=O)[nH]c2ccccc12", "activity change, negative = inhibition": "inactive: -8.45%"}, {"smiles": "COc1cc(C(=O)NCC2(N3CCCCC3)CCCCC2)ccc1OC(F)F", "activity change, negative = inhibition": "inactive: -15.5%"}, {"smiles": "COc1ccc(NC2CCN(C(=O)OC(C)(C)C)CC2)cc1", "activity change, negative = inhibition": "inactive: -19.7%"}, {"smiles": "CC(C)c1ccc(C(=O)NCC2(N3CCOCC3)CCCCC2)cc1", "activity change, negative = inhibition": "inactive: -7.19%"}, {"smiles": "CN1CCN(CCOC(=O)C(O)(c2ccccc2)c2ccccc2)CC1", "activity change, negative = inhibition": "inactive: -10.1%"}, {"smiles": "O=[N+]([O-])c1cc([N+](=O)[O-])c(NCC2CCS(=O)(=O)C2)c([N+](=O)[O-])c1", "note": "(stereo not drawn)", "activity change, negative = inhibition": "inactive: -12%"}, {"smiles": "O=C(NCC1(N2CCCCC2)CCCCC1)c1cccc(C(F)(F)F)c1", "activity change, negative = inhibition": "inactive: 6.36%"}, {"smiles": "CCCOc1cccc(C(=O)NCC2(N3CCOCC3)CCCCC2)c1", "activity change, negative = inhibition": "inactive: 27.3%"}, {"smiles": "COc1cc(OC)c(C(=O)NCC2(N(C)C)CCCCC2)cc1OC", "activity change, negative = inhibition": "inactive: -6.73%"}, {"smiles": "O=C(NCC1(N2CCOCC2)CCCCC1)c1cc(F)c(F)cc1Cl", "activity change, negative = inhibition": "inactive: -16.3%"}, {"smiles": "CC(C)c1ccc(NC2CCN(C(=O)OC(C)(C)C)CC2)cc1", "activity change, negative = inhibition": "inactive: -9.23%"}, {"smiles": "COc1ccc(CN(CCCl)CCCl)cc1Cl", "activity change, negative = inhibition": "inactive: -26.1%"}, {"smiles": "CN(C)c1cccc(C(=O)NCC2(N3CCCCC3)CCCCC2)c1", "activity change, negative = inhibition": "inactive: -24.3%"}, {"smiles": "O=[N+]([O-])c1cc([N+](=O)[O-])c(OC2CCCCC2O)c([N+](=O)[O-])c1", "note": "(stereo not drawn)", "activity change, negative = inhibition": "inactive: -13.2%"}, {"smiles": "O=[N+]([O-])c1cc([N+](=O)[O-])c(Nc2ccc(Cl)cc2)c([N+](=O)[O-])c1", "activity change, negative = inhibition": "inactive: -3.41%"}, {"smiles": "Cc1ccc(C(=O)NCC2(N(C)C)CCCCC2)o1", "activity change, negative = inhibition": "inactive: -16.9%"}]}]}
